Data reported in US20190062383A1 (priority 2013, published 2019).

Legend:
[1] = system: primary normal human CD4+ T cells
[2] = system: primary normal human CD8+ T cells

CC[C@H](C)[C@@H]1NC(=O)[C@H](CCCCN)NC(=O)[C@@H](NC(=O)[C@H](CCCCN)NC(=O)[C@@H](NC(=O)[C@H](CC(N)=O)NC(=O)[C@@H](NC(=O)[C@@H](NC(=O)[C@@H](NC(=O)CN)C(C)C)[C@@H](C)CC)[C@@H](C)CC)C(C)C)CSSC[C@@H]2NC(=O)[C@H](CCCCN)NC(=O)CNC(=O)[C@H](Cc3ccccc3)NC(=O)[C@H](CCCNC(=N)N)NC(=O)[C@H](CCSC)NC(=O)CNC(=O)[C@H](C)NC(=O)[C@H](CCCCN)NC(=O)[C@H](CCCCN)NC(=O)[C@@H]3CSSC[C@@H](C(=O)N[C@H](C(=O)N4CCC[C@H]4C(=O)N[C@@H](CCCCN)C(=O)O)[C@@H](C)O)NC(=O)[C@H](Cc4c[nH]cn4)NC(=O)[C@H](CSSC[C@H](NC(=O)[C@H](CCC(N)=O)NC(=O)[C@H](CCCNC(=N)N)NC(=O)[C@H](CO)NC1=O)C(=O)N[C@@H](CC(C)C)C(=O)N[C@@H](CCC(=O)O)C(=O)N1CCC[C@H]1C(=O)N3)NC(=O)[C@H](CCCCN)NC(=O)CNC(=O)[C@H](CC(N)=O)NC(=O)[C@H](CCSC)NC2=O [OsK1]
IC50 [1]: 0.03 nM
IC50 [2]: 0.03 nM
